Measured values taken from ChEMBL document CHEMBL2396551, “Design and synthesis of 6,7-dimethoxyquinazoline analogs as multi-targeted ligands for α1- and AII-receptors antagonism” (Bioorg Med Chem Lett, 2013).

Amino acid sequences for entries named in this document (tags omitted). A change or cut given only in a name is not applied to a line headed by its entry.
UniProt P15823: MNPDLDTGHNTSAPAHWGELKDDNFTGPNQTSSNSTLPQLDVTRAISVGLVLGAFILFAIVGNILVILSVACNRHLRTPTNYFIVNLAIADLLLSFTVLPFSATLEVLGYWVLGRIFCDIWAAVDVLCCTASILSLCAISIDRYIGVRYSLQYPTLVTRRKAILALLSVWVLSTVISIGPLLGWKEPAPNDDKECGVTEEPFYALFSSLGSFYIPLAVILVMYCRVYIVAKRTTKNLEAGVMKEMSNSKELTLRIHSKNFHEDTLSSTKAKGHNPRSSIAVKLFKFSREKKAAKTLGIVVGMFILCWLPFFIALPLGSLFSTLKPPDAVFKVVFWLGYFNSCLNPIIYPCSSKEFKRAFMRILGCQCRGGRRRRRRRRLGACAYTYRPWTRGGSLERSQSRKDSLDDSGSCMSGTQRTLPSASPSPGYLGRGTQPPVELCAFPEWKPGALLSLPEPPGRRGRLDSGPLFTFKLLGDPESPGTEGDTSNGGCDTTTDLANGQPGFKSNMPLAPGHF
UniProt P23944: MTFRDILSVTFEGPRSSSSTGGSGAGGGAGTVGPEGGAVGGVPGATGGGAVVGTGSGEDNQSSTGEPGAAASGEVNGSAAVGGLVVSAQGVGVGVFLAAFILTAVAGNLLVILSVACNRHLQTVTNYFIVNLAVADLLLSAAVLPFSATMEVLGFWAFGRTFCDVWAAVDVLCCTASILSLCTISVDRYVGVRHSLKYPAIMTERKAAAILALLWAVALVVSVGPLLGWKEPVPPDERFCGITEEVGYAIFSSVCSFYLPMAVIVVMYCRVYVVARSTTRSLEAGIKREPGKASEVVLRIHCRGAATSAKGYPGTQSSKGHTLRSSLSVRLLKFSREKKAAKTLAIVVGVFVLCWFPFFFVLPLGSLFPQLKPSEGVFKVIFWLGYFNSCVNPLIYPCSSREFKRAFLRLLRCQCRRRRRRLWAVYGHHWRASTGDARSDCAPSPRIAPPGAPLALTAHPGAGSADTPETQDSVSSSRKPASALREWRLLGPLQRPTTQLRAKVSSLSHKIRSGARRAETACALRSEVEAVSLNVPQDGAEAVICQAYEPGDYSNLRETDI
UniProt P43140: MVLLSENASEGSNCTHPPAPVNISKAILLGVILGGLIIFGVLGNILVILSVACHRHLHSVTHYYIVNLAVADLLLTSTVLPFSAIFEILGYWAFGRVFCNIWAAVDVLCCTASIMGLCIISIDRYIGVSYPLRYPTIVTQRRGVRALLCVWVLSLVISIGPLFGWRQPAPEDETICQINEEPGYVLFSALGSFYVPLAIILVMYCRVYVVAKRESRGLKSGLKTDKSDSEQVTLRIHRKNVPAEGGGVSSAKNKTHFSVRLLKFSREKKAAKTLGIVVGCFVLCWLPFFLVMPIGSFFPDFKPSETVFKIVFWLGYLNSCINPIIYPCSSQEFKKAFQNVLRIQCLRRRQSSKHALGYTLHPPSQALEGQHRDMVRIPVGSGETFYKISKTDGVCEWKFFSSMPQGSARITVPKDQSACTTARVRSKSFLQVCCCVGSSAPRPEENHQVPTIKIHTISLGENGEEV

Target: Adrenergic receptor alpha-1 (Rattus norvegicus, UniProt P15823+P23944+P43140)
Assay: Antagonist activity at alpha1-adrenergic receptor in Wistar rat endothelium denuded thoracic aorta assessed as inhibition of phenylephrine-induced contraction preincubated for 30 mins prior to phenylephrine-challenge
Assay type: tissue-based

pA2: 8.65
SMILES: COc1cc2nc(N3CCN(C(=O)C4CCCO4)CC3)nc(N)c2cc1OC (stereo unspecified) [TERAZOSIN]
